From PubChem BioAssay AID1946 (Johns Hopkins Ion Channel Center, 2009)
This is a selection; strong and weak results do not stand in their true shares. Active and inactive are the calls of the source.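 The calls were made as follows: active = readout below zero, meaning a drop past 3 SD under the dofetilide-free negative control mean; inactive = the rest.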

By UniProt entry, the sequences of proteins in these tests, tags left out.
UniProt O88943, whole entry: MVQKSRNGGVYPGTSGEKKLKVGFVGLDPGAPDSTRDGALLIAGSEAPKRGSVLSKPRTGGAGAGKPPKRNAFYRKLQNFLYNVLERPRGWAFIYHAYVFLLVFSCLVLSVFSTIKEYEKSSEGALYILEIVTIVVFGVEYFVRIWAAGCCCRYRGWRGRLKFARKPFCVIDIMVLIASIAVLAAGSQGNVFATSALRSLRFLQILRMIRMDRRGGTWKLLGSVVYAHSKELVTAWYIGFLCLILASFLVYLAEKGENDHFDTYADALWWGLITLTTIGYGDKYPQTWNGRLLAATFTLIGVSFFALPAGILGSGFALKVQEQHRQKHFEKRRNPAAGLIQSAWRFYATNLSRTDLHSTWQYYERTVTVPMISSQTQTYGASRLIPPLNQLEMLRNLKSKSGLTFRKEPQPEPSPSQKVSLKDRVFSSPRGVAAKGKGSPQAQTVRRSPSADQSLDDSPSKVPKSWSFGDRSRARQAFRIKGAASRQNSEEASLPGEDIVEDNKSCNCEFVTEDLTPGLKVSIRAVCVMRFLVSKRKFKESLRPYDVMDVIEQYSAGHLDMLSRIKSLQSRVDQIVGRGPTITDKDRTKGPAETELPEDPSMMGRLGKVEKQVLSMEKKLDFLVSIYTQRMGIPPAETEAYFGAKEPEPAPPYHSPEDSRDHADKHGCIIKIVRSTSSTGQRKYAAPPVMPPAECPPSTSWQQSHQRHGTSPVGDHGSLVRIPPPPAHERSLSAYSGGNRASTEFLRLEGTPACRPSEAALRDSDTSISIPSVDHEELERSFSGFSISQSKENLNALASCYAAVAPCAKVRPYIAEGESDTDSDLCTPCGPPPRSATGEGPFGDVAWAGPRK

target: Potassium voltage-gated channel subfamily KQT member 2 (Rattus norvegicus) (UniProt O88943); assay: rat KCNQ2 channel inhibition by compounds alone, confirmation, counter-screen for hERG block protector project, cell-based, CHO, FluxOR thallium flux (AID 1946); settings: CHO-KCNQ2 cells, FluxOR thallium flux fluorescence; at 10 µM; stronger effect = lower value; zero marks the 3-SD hit cutoff

Row | SMILES | activity change vs negative control
1 | CCOC(=O)N1CCC(Nc2ccc(OC)cc2)CC1 | inactive: 14.6%
